Antibody variant affinities, Ab-14 heavy chain, assay B

Data: MIT Lincoln Laboratory AlphaSeq set, Li et al. 2023, doi:10.1038/s41467-023-39022-2, as distributed in FLAb.

Target: peptide PDVDLGDISGINAS, taken from heptad repeat 2 (HR2) of SARS-CoV-2 spike.

The variants keep the light chain, the linker and the frameworks of Ab-14 (scFv order VH, the linker GGGGSGGGGSGGGGS, VL).
VH: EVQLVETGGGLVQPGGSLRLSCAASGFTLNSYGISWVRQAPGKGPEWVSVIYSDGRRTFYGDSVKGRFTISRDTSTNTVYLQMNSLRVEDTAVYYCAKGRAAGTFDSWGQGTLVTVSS
VL: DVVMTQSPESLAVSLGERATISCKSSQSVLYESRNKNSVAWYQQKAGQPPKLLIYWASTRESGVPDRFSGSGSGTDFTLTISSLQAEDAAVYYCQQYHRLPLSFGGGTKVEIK

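Designed CDR sequences, proposed from the first random library and measured here. Group labels follow the data file (Ctrl: baseline library sampled from a position-specific scoring matrix, with some repeated check sequences; Rand: our label for a block that the file lists under HC and that is probably the random mutants of the ten best first-round binders; GP: Gaussian process model; GPLM: also part of the Gaussian process libraries; HC: hill climbing; Gen: genetic algorithm; Gibbs: Gibbs sampling; a sequence that several methods proposed may carry one label only). AlphaSeq pools MATa yeast showing the antibodies with MATalpha yeast showing the peptide. Binding brings cells together so that they mate, and sequencing counts the barcode pairs among the diploids. Each replicate has its own calibration line, from reference interactions of the BCL2 family. There are six technical replicates.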

Positions count from residue 1 of the parent VH; T28Y puts Y in place of T. This list holds designs with at most six substitutions. Scale: log10 of Kd in nM, estimated from mating counts; low values are strong binders. The mean shown is taken over the replicates in which the pair was detected. "nd" means that the variant was in the library but no mating with the target was seen in any replicate; the authors take this as a sign of poor binding, and no number exists. Background: pairings of all heavy chain designs with three empty control strains gave a value in 1% of cases (median 2.08, 5th percentile 0.84). Values in that range, when seen in few replicates, are hard to tell from nonspecific mating.

For T28Y/S31D/R100T [GP_HC], the assay gave 0.43 (5 of 6 replicates).
For T28S/S31E/G61E [GPLM_Gen], the assay gave 0.73 (2 of 6 replicates).
For R56Y/D106C/S107L [Ctrl], the assay gave nd (0 of 6 replicates).
For T28N/G61Q/R100K/A101V [GP_Gibbs], the assay gave 0.48 (6 of 6 replicates).
For N30D/S53A/D106Y [GP_HC], the assay gave 0.54 (1 of 6 replicates).
For T28A/S31D/F59Y [GP_HC], the assay gave 0.39 (6 of 6 replicates).
For G61S/S63A/K65R/R100K/D106K [Ctrl], the assay gave 1.45 (6 of 6 replicates).
For F27T/T28D [Ctrl], the assay gave nd (0 of 6 replicates).
For S31E/A101M/S107M [GP_HC], the assay gave nd (0 of 6 replicates).
For T28E/S53A/A101M [Ctrl+GP_Gen], the assay gave 0.15 (12 of 12 replicates).
For N30G/F59A/R100H/A101M/G103I [Ctrl], the assay gave 1.56 (5 of 6 replicates).
For T28D/R100Q/A101T/S107C [GP_Gen], the assay gave 1.45 (5 of 6 replicates).
For T28S/G61A/R100E/S107L [GPLM_Gen], the assay gave 0.86 (6 of 6 replicates).
For S31D/S35W/I51H/F59Q/G61I [Rand], the assay gave 2.61 (1 of 6 replicates).
For N30D/A101G [Ctrl], the assay gave nd (0 of 6 replicates).
For N30E/S31D/F59M [Ctrl], the assay gave 0.79 (6 of 6 replicates).
For F27D/Y60I/S107L [Ctrl], the assay gave nd (0 of 6 replicates).
For T28E/S31K/S63Q/A101T [GP_Gibbs], the assay gave 0.62 (5 of 6 replicates).
For S31E/S107G [GP_HC], the assay gave nd (0 of 6 replicates).
For T28S/R100V/S107T [GPLM_Gibbs], the assay gave 0.37 (6 of 6 replicates).
For S31Q/I51H/S107Q [Ctrl], the assay gave nd (0 of 6 replicates).
For S31E/G61T/A101F/D106G [Rand], the assay gave nd (0 of 6 replicates).
For S53R/F105N [Ctrl], the assay gave nd (0 of 6 replicates).
For T28S/R100D/A101V [GPLM_Gen], the assay gave -0.09 (6 of 6 replicates).
For N30Q/S31E [Ctrl], the assay gave 0.45 (6 of 6 replicates).
For T28A/G61I/A101Q [GPLM_Gibbs], the assay gave 1.65 (5 of 6 replicates).
For G26H/T28D/F59A/A101T [GP_Gen], the assay gave 0.62 (6 of 6 replicates).
For F27Q/T28K/A101N/F105T [Ctrl], the assay gave nd (0 of 6 replicates).
For G61S/R100K/A101E [GPLM_Gen], the assay gave 0.01 (6 of 6 replicates).
For S53A/T104W [Ctrl], the assay gave nd (0 of 6 replicates).
For F59S/D106F [Ctrl], the assay gave nd (0 of 6 replicates).
For R56W/G61T/A102S/G103D [Ctrl], the assay gave nd (0 of 6 replicates).
For F59E/S107C [Ctrl], the assay gave nd (0 of 6 replicates).
For G103L/S107L [Ctrl], the assay gave nd (0 of 6 replicates).
For T28Q/R56M/G61S/A101T [GP_Gibbs], the assay gave 1.02 (6 of 6 replicates).
For L29P/S53R/K65D/S107Q [Ctrl], the assay gave nd (0 of 6 replicates).
For T28D/A101M/S107T [GP_Gen], the assay gave 0.19 (6 of 6 replicates).
For S31D/F59M/G61T/A101C [GP_HC], the assay gave nd (0 of 6 replicates).
For T28E/S31N/G61A/R100K/A101T [GP_Gibbs], the assay gave -0.23 (6 of 6 replicates).
For T28D/G61C/A101N [GP_Gen], the assay gave 0.89 (6 of 6 replicates).
For T28K/G61D/R100Q/A101E [GP_HC], the assay gave nd (0 of 6 replicates).
For T28D/S63K/R100E [GP_Gen], the assay gave 0.81 (6 of 6 replicates).
For G26E/G61S/R100K/A102G [GP_HC], the assay gave 1.61 (1 of 6 replicates).
For T28E/S53A/R100K/S107T [GP_Gen], the assay gave -0.22 (6 of 6 replicates).
For S31E/R100K/D106T [Ctrl], the assay gave 2.53 (1 of 6 replicates).
For T28S/G61A [GPLM_Gen], the assay gave 0.52 (6 of 6 replicates).
For G26K/R100K/A101T [GP_Gen], the assay gave 1.91 (2 of 6 replicates).
For G99H/R100D/F105P [Ctrl], the assay gave 3.43 (1 of 6 replicates).
For T28V/S53A/R100Q [GPLM_Gen], the assay gave 0.45 (5 of 6 replicates).
For F27A/N30K/A101N/S107W [Ctrl], the assay gave nd (0 of 6 replicates).

The 4 strongest on average among those seen in every replicate, once more:

With T28E/S31N/G61A/R100K/A101T [GP_Gibbs] the result was -0.23 (6 of 6 replicates).
With T28E/S53A/R100K/S107T [GP_Gen] the result was -0.22 (6 of 6 replicates).
With T28S/R100D/A101V [GPLM_Gen] the result was -0.09 (6 of 6 replicates).
With G61S/R100K/A101E [GPLM_Gen] the result was 0.01 (6 of 6 replicates).

In the paper, a design with two or fewer of six values counts as a poor binder. The range of this assay differs from that of the first round, and the authors advise against merging the two. Some sequences occur more than once in the pool; their replicates are pooled.